# Molecular target: T1, Tryptophan 5-hydroxylase 1 (Homo sapiens, UniProt P17752)
# T1 sequence (P17752 whole entry): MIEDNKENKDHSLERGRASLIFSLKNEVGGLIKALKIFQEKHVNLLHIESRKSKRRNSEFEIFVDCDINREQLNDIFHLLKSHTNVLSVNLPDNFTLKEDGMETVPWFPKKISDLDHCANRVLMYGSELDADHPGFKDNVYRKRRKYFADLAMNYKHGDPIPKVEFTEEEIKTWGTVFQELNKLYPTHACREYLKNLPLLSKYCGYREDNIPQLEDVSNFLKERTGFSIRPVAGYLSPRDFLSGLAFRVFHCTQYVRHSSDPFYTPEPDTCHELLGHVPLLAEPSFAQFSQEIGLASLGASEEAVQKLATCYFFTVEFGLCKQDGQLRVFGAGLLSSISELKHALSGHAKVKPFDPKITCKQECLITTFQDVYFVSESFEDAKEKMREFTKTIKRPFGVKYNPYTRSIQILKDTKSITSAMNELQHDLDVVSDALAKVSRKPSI
# Assay: Inhibition of TPH1
structure (smiles),measurement,value
C[C@@H](Nc1nc(N)nc(-c2ccc(C[C@H](N)C(=O)O)cc2)n1)c1ccc2ccccc2c1,IC50,26 nM

# — ChEMBL document CHEMBL1155012, “Modulation of peripheral serotonin levels by novel tryptophan hydroxylase inhibitors for the potential treatment of functional gastrointestinal disorders” (J Med Chem, 2008)
